Chains of the proteins cited; added tags and fusions are not shown. Residues count along the entry.
UniProt P21836, 32-614 limits assumed: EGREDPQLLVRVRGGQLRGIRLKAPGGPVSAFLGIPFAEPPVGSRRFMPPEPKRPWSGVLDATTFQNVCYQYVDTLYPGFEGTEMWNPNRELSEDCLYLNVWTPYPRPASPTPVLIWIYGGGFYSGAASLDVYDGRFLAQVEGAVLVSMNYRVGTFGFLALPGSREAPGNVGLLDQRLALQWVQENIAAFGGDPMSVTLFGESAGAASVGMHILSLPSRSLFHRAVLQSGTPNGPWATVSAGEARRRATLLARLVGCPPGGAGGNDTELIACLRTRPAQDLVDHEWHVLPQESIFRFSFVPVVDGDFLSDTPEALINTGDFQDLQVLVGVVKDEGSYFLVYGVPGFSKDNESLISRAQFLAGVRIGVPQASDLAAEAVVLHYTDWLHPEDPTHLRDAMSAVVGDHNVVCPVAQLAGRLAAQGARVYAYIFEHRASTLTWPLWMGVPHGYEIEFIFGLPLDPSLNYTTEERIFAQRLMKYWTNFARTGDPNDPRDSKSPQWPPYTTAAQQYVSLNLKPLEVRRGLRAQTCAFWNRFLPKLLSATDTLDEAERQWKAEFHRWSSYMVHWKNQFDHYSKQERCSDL

In patent publication US5654308A (priority 1990, dated 1997):

Biological target: acetylcholine esterase (Mus musculus, UniProt P21836)
Conditions: read-out: AChE inhibiting activity IC50; mouse brain homogenate; acetylthiocholine substrate, DTNB, 412 nm; tested form: HCl

With `COc1cc2c(cc1OC)OC(=O)N(CCC1CCN(Cc3ccccc3)CC1)C2` the IC50 was 0.2 nM.
